Values quoted from earlier work in patent US10358672B2, “7-β-hydroxysteroid dehydrogenase mutants and process for the preparation of ursodeoxycholic acid” (Pharmazell GmbH, priority 2014, dated 2019).

The chains behind the UniProt entries cited, without tags or fusion partners. Where a name states a change or a piece, a line headed by the entry shows the natural chain unless it says otherwise.
UniProt A4ECA9: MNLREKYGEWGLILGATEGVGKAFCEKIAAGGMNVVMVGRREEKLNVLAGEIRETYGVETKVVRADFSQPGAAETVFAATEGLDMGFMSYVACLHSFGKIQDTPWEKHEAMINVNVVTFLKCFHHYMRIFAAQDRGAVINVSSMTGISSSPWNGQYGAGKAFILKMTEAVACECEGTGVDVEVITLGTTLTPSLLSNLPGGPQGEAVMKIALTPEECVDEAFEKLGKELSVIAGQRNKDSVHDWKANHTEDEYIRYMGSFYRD

Biological target: 7β-HSDH obtainable from Collinsella aerofaciens DSM 3979 (Collinsella aerofaciens, UniProt A4ECA9)
Details: wild-type 7β-HSDH; cited from earlier work

## C[C@H](CCC(=O)O)[C@H]1CC[C@H]2[C@@H]3[C@@H](O)C[C@@H]4C[C@H](O)CC[C@]4(C)[C@H]3CC[C@]12C [UDCA, Ursodeoxycholic acid]
  Km: 6.23 µM
